Data published in article PMC2801547 (Journal of medicinal chemistry, 2009).

System: WiDr colorectal adenocarcinoma cells
Experiment: cells
Conditions: Homo sapiens, 72 h

CC(/C=C/[C@@H]1C[C@]2(CO2)CC(C)(C)O1)=C\C[C@H]1CC[C@@H](NC(=O)/C=C\[C@H](C)OC(=O)N2CCN(C3CCCCCC3)CC2)CC1 [compound 7, (S,Z)-5-((1R,4R)-4-((2E,4E)-5-((3R,5S)-7,7-dimethyl-1,6-dioxaspiro[2.5]octan-5-yl)-3-methylpenta-2,4-dienyl)cyclohexylamino)-5-oxopent-3-en-2-yl 4-cycloheptylpiperazine-1-carboxylate]
IC50: 4 to 5 µM
